The values below are quoted from earlier work in PMC3065546 (Pain, 2011).

Protein sequences, listed by entry. Tags and fused reporters are not part of them.
UniProt P33261, whole entry: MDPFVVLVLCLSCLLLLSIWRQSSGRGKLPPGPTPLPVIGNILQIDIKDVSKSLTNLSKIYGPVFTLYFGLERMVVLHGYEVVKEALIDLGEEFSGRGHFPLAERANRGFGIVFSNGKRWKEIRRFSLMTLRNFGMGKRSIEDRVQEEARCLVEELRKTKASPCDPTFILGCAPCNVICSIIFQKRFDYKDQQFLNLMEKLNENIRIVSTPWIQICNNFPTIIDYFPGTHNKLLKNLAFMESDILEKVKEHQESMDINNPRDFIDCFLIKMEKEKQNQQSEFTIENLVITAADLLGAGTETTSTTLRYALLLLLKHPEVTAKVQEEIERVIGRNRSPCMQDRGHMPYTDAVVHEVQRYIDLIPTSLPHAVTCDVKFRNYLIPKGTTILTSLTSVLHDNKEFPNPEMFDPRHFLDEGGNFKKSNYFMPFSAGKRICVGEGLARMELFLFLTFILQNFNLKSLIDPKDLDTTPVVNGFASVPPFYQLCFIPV

As a reminder, the Ki is the dissociation constant of the complex between target and ligand, obtained from inhibition or displacement.

This data set addresses cDNA-expressed human CYP2C19 (Homo sapiens, UniProt P33261). Particulars: read-out: Ki CYP2C19; cited from earlier work.

For the compound `OC(Cn1cncn1)(Cn1cncn1)c1ccc(F)cc1F` [Fluconazole, fluconazole], the Ki was 1.05 µM.
